Drawing on ChEMBL document CHEMBL2163219, “Synthesis and evaluation of aryl-naloxamide opiate analgesics targeting truncated exon 11-associated μ opioid receptor (MOR-1) splice variants” (J Med Chem, 2012), this text covers Ki for two compounds.

Amino acid sequences for entries named in this document (tags omitted).
UniProt P32300, whole entry: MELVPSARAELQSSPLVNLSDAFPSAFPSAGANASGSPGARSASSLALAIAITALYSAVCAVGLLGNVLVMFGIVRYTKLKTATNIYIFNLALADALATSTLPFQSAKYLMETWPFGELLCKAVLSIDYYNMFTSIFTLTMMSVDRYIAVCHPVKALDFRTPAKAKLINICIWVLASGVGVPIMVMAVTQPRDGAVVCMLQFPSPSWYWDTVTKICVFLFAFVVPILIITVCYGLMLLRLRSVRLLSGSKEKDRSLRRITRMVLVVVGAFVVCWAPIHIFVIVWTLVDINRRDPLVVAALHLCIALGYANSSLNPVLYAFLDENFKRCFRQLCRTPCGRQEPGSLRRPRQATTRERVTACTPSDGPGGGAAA

The test addresses Delta-type opioid receptor (Mus musculus, UniProt P32300). As to the kind of experiment: Displacement of [125I]-BNtxA from mouse cloned DOR-1 expressed in CHO cell membrane after 90 mins. For orientation: Loss of bound radioactivity is the signal in a displacement assay; it reports binding, not function.

A word on the Ki: it is a dissociation constant, usually derived from enzyme kinetics or from competition with a known ligand. Lower therefore signals higher affinity. Compound `C=CCN1CC[C@]23c4c5ccc(O)c4O[C@H]2[C@H](NC(=O)c2ccc(-c4ccccc4)cc2)CC[C@@]3(O)[C@H]1C5` yielded a Ki of 19.2 nM. This counts as double-digit nanomolar.
The compound `C=CCN1CC[C@]23c4c5ccc(O)c4O[C@H]2[C@H](NC(=O)CCCCCCCCCCCC)CC[C@@]3(O)[C@H]1C5` had a Ki of 15.2 nM.
